According to PMC5727386:

Target: Bcr-Abl DH domain (residues 487–702) (UniProt P11274)
Assay: NMR titration; GTPase titrated to 50 μM 15N-labeled DH domain; 50 mM HEPES pH 7, 50 mM NaCl, 1 mM DTT, 1 mM imidazole, 2 mM EDTA; [15N,1H]-TROSY; about 10 peaks fitted to a 1:1 binding model, mean Kd

Kd: 800 µM
Substance: Rac1 (from UniProt P63000 1-192) (enzyme)
